Earlier results on one substance are cited in article PMC8657033.

This data set concerns the target Mesothelin (Homo sapiens) (UniProt Q13421). As to conditions: cited from earlier work.

Consider Amatuximab, for which the Kd is 1.5 nM.
